In publication PMC2807033 (2009):

Biological target: T1, Rep helicase (E. coli), wild type (E. coli, UniProt P09980 1-673)
T1 chain: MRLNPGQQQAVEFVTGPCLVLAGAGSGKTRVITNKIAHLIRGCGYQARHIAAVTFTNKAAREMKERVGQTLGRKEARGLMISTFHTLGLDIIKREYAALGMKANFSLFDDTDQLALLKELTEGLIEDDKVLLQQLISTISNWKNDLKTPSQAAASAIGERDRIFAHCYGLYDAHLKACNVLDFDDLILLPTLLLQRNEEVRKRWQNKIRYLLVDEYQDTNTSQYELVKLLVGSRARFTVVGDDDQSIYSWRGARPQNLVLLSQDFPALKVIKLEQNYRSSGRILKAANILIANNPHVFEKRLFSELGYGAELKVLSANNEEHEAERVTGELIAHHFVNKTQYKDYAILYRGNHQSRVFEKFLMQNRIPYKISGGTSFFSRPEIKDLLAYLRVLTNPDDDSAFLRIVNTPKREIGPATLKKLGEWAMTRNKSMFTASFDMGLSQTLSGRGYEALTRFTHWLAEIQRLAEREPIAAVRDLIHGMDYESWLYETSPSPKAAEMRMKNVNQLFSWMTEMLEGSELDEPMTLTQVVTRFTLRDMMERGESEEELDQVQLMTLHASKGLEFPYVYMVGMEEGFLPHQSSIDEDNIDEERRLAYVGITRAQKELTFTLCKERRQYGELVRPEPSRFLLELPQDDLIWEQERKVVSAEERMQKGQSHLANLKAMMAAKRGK
Assay: SPR

B1: E. coli replicative helicase DnaB, purified (enzyme)
chain: MAGNKPFNKQQAEPRERDPQVAGLKVPPHSIEAEQSVLGGLMLDNERWDDVAERVVADDFYTRPHRHIFTEMARLQESGSPIDLITLAESLERQGQLDSVGGFAYLAELSKNTPSAANISAYADIVRERAVVREMISVANEIAEAGFDPQGRTSEDLLDLAESRVFKIAESRANKDEGPKNIADVLDATVARIEQLFQQPHDGVTGVNTGYDDLNKKTAGLQPSDLIIVAARPSMGKTTFAMNLVENAAMLQDKPVLIFSLEMPSEQIMMRSLASLSRVDQTKIRTGQLDDEDWARISGTMGILLEKRNIYIDDSSGLTPTEVRSRARRIAREHGGIGLIMIDYLQLMRVPALSDNRTLEIAEISRSLKALAKELNVPVVALSQLNRSLEQRADKRPVNSDLRESGSIEQDADLIMFIYRDEVYHENSDLKGIAEIIIGKQRNGPIGTVRLTFNGQWSRFDNYAGPQYDDE
For B1, the Kd was 93 nM.
